Molecular target: T1, GAK (Homo sapiens, UniProt O14976)
T1 sequence (O14976 1-1311): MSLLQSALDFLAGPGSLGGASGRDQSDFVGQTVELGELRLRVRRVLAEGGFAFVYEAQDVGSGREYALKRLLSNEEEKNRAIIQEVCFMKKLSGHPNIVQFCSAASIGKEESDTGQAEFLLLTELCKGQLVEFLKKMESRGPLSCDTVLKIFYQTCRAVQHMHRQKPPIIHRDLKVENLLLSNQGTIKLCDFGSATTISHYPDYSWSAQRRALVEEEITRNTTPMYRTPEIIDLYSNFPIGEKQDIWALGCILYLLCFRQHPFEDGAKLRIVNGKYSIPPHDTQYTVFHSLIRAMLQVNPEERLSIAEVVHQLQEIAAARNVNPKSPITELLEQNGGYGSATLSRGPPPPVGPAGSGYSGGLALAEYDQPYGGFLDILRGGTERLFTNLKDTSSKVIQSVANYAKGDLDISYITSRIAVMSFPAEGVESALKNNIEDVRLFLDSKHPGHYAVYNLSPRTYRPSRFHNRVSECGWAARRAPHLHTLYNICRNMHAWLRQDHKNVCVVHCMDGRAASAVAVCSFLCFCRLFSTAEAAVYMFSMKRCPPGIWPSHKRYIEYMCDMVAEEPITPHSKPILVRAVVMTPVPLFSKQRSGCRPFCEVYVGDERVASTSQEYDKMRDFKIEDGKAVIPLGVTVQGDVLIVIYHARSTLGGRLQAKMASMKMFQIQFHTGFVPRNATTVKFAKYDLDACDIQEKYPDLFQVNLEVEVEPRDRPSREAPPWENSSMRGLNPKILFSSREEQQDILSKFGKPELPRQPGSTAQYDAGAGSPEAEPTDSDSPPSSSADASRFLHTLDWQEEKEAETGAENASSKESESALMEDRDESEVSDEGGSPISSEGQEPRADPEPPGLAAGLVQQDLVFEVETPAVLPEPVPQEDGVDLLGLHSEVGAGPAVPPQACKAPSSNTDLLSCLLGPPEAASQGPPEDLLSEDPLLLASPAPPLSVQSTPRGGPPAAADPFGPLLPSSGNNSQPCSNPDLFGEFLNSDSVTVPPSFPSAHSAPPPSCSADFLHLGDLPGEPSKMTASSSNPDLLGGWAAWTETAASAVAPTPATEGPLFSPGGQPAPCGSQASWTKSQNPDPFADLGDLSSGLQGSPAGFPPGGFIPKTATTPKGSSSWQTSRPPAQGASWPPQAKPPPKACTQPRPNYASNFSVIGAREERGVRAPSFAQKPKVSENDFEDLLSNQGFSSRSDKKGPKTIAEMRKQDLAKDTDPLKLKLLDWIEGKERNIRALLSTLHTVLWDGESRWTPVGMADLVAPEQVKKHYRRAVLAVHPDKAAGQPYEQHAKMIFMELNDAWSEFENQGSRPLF
Experiment: TR-FRET ligand-binding displacement assay
Details: NAK family FRET screening

SMILES: COc1cc(Nc2ccnc3ccc(Br)cc23)cc(OC)c1OC [Compound 1]
- Ki: 3.1 nM

Source: publication PMC6891286, “Towards the Development of an In vivo Chemical Probe for Cyclin G Associated Kinase (GAK)” (Molecules, 2019)
